Here are results for one substance from patent publication US20260115250A1, “METHODS OF TREATING AGE-RELATED MACULAR DEGENERATION” (Character Biosciences, Inc., priority 2022, published 2026).

This experiment in a line: DMPC solubility assay, 0.5 mM DMPC (turbidity reduction). As to conditions: FIGS. 2A-2D and 3A-3C. Type of experiment: biochemical. Here is the method:
The safety and functional activities of the peptides described herein are illustrated in the figures and data provided herein. For example, FIGS. 2A-2D illustrate lipid solubilization activity, measured by reducing turbidity of 1,2-dimyristoyl-sn-glycero-3-phosphocholine (DMPC) liposome solutions, for each of the peptides shown. In this example, peptide stocks were diluted to 200 μM in H2O (a 2× solution) and 50 μL of peptide solution was transferred in triplicate into 96-well plates. A one mM solution of 1,2-dimyristoyl-sn-glycero-3-phosphocholine (DMPC) in H2O was prepared, and using a multichannel pipet, 50 μL DMPC solution was rapidly added to the plate. Peptide and lipid solutions were incubated at room temperature for 15 minutes with a final concentration of 100 μM peptides and 0.5 mM DMPC. After 15 minutes, absorbance was read on a plate reader at 405 nm. […] Data are presented as mean+SD over two runs. Nearly all tested peptides cleared over 50% of lipid over the course of the assay.
Eleven of the test peptides (T-025, T-027, T-051, T-052, T-054, T-059, T-062, T-063, T-065, T-069 and T-080) were examined in greater detail, as shown in FIGS. 3A-3C. In these experiments, DMPC solubility titration curves were generated. […] After 15 minutes, absorbance was read on a plate reader at 405 nm. […]

With “T-012: therapeutic peptide (QSTEELRVRLASHLRKLRKRLL)”, the DMPC solubilizing activity result is “significant activity”.
